Usually solubility stands for the dissolved amount per volume that the medium holds.

≈ marks a conversion by molar mass, not a printed value.

This data set in a line: physchem. The following applies: 37° C., x ± s, n = 3.

On to `C[C@H]1CCC/C=C/[C@@H]2C[C@H](O)C[C@H]2[C@H](OC(=O)/C=C/c2cccnc2)/C=C/C(=O)O1` [Compound 16b], for which the solubility at 24 h is, setting by setting: (5% DMSO + 95% H2O) 0.73 ± 0.13 mg/mL; (Acetone) 30.3 ± 0.52 mg/mL (≈ 73.6 mM).

These data come from patent US20220064138A1, “MACROLIDE BREFELDIN A ESTER DERIVATIVES AND USE THEREOF” (OCEAN UNIVERSITY OF CHINA, priority 2019, published 2022).
